From patent publication US20160046672A1, “STAPLING eIF4E INTERACTING PEPTIDES” (AGENCY FOR SCIENCE, TECHNOLOGY AND RESEARCH, priority 2013, published 2016) come the findings set out here.

The chains behind the UniProt entries cited, without tags or fusion partners.
UniProt P06730, whole entry: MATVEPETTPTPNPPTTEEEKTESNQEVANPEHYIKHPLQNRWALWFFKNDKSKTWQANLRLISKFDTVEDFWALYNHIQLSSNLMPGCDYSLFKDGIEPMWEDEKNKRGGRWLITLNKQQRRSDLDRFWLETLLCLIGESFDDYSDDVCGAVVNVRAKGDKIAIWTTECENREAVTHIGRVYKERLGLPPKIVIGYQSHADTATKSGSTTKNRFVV

A short description of one series: circular dichroism. Particulars: 5 mM sodium phosphate; pH 7.0; ns °C; 0.5 or 2 mg/mL. A general note: Circular dichroism is the unequal absorption of left and right circularly polarised light.
Another series has as its target T1, eIF4E (Homo sapiens, UniProt P06730).
T1 construct: made in house
Put plainly: eIF4E affinity (SPR/FP, method not named). In kind it is binding. The protocol:
Apparent Kd values were determined for a variety of molecules via competitive anisotropy anisotropy experiments. Titrations were carried out with the concentrations eIF4E held constant at 200 nM, respectively and the labeled peptide at 50 nM. The competing molecules were then titrated against complex of the FAM labeled peptide and protein. Apparent Kd values were determined by fitting the experimental data to the equations shown below: […]
Six buffer blanks were first injected to equilibrate the instrument fully and then a solvent correction curve was performed followed by a further two blank injections. […] Using a flow rate of 50 μl/min, compounds were injected for 60 s and dissociation was monitored for 180 s. The data collection rate was 10 Hz. Kds were determined using the BiaEvaluation software (Biacore) and calculated kinetically from the dissociation and association phase data for each of the peptides. The kinetic data were fitted to 1:1 binding models. Each individual peptide Kd was determined from three separate titrations. Within each titration at least two concentration points were duplicated to ensure stability and robustness of the chip surface.

Series [1] in a line: Circular dichroism, percent α-helicity in solution. The format is physicochemical. To be noted: CD, 5 mM sodium phosphate buffer pH 7.0. The protocol: CD was measured on a JASCO J-810 spectropolarimeter, and spectra were either recorded with a quartz cuvette (Helmer) with a pathlength of 0.01 cm or 0.1 cm in 5 mM sodium phosphate buffer (pH 7.0). FUV CD spectra were recorded from 260 nm to 200 nm at a peptide concentration of either 2 mg/ml or 0.5 mg/ml, respectively. The CD signal was converted into mean residue ellipticity in units of degree·cm^2·dmol^−1·residue^−1. CD spectra were recorded at a data pitch of 0.2 nm at 50 nm min^−1, a response time of 2 s, and a bandwidth of […]. Once converted to mean residue ellipticity, percent α-helicity can be calculated with equation (1) and (2): […]

As for `CC(=O)N[C@@H](CCCCN)C(=O)N[C@@H](CCCCN)C(=O)N[C@@H](CCCNC(=N)N)C(=O)N[C@@H](Cc1ccc(O)cc1)C(=O)N[C@@H](CO)C(=O)N[C@@H](CCCNC(=N)N)C(=O)N[C@@H](CCC(=O)O)C(=O)NC(C)(C)C(=O)N[C@@H](CC(C)C)C(=O)N[C@@H](CC(C)C)C(=O)NC(C)(C)C(=O)N[C@@H](Cc1ccccc1)C(N)=O` [TIP-03, KKRYSREXLLXF], the helicity in the series “circular dichroism” is 0%. For the same molecule, the “affinity / binding to eIF4E (in words)” value at eIF4E is on record as “only slightly attenuates binding with eIF4E”. For the same molecule, the “Helicity (%)” value in series [1] is given as 0%.
